Literature values, collected in US7018813B2 (priority 2000, dated 2006).

Details: cited from earlier work

Substance: Barium chloride [BaCl2]
- solubility in water (at 25° C.): 1800 mM
- solubility in water (at 100° C.): 2800 mM

Like-named read-outs stand apart in the source and are kept apart here.
